## Antibody variant affinities, Ab-14 light chain, assay B

Values reported by Li et al. 2023, doi:10.1038/s41467-023-39022-2 (FLAb copy).

Binding partner: SARS-CoV-2 spike HR2 peptide, sequence PDVDLGDISGINAS.

Parent: Ab-14, a human scFv built as VH, the linker GGGGSGGGGSGGGGS, VL. Only the CDRs of the light chain vary.
VH: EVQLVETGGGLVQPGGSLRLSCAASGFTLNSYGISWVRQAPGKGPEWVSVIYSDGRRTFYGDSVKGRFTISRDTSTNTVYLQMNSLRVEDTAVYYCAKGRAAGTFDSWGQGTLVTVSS
VL: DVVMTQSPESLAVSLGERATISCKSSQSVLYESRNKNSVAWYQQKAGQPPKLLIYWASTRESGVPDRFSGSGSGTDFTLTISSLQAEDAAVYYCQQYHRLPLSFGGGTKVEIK

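The starting antibody came from a phage panning campaign against this peptide. Designed CDR sequences, proposed from the first random library and measured here. Several design methods are mixed in this list. The scFvs were displayed on barcoded MATa yeast, the peptide on MATalpha yeast. The frequency of each diploid, read from paired DNA barcodes, reflects how well the two displayed proteins bind. Each replicate has its own calibration line, from reference interactions of the BCL2 family. There are six technical replicates.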

The parent's light chain CDRs are KSSQSVLYESRNKNSVA, WASTRES, QQYHRLPLS; each variant's own CDRs replace them letter for letter.
The read-out is the apparent dissociation constant on a log10 scale (nM): the lower, the stronger.
Replicates are averaged; those with no signal do not enter the mean.
Where no diploid with the target was found in any replicate, the entry reads "no signal": below detection, most likely a poor binder, though not proof of it.

For KSDTSKLYESRNKNSVA | WASTRES | QQYHRLPLS, the assay gave 2.11 (6 of 6 replicates).
For KSLQSWLYESRNKNSVA | HASQREQ | QQYHRLPLS, the assay gave 0.20 (6 of 6 replicates).
For KLSQSVLYESRNKNSVA | EASTRCD | QQYHRLPLS, the assay gave -0.19 (6 of 6 replicates).
For KLQFSEEYGSRNKNSVA | SASQRES | QQYHRLPLS, the assay gave 0.06 (6 of 6 replicates).
For KLSYSWLYESRNKNSVA | EASTRES | QQYHRLPLS, the assay gave -0.09 (6 of 6 replicates).
For KIAQSMAMTSHHINSVA | QSTTREE | QQYNHLPLS, the assay gave 0.16 (6 of 6 replicates).
For QLEWLEINGQSVGNSIA | ARVQEQE | QQYFRLPLT, the assay gave no signal (0 of 6 replicates).
For KLSQSVPYESRNKNQVA | DASTRMS | QQYHRLPLS, the assay gave -0.07 (6 of 6 replicates).
For KSKQSVLYESRNKNSVA | WASTRES | QQYHRLPFS, the assay gave 2.41 (3 of 6 replicates).
For KSSQSWLYESRNKNSVA | EASTRES | QQYHRLPLS, the assay gave -0.29 (6 of 6 replicates).
For QIYQAGHTLMQAINNVA | DVTNRSN | QQYNRLPLS, the assay gave 0.26 (6 of 6 replicates).
For HLGLSTMLEEYVRNSVA | NNSTREE | QQYDRLPLS, the assay gave 2.14 (3 of 6 replicates).
For KLRSVTGTEKVRGNNVA | EMETRER | QQYNRLPLS, the assay gave 0.17 (6 of 6 replicates).
For KSSESALYESRNKNSVA | WASTRES | QQYHNLPLS, the assay gave 1.92 (1 of 6 replicates).
For HMTIDIEMEAKHQNSVA | EASHTEY | QQYSELPLT, the assay gave 1.48 (6 of 6 replicates).
For KLSQSVLYEERNKNSVA | NASTRMS | QQYHRLPLS, the assay gave -0.22 (6 of 6 replicates).
For KVSMSYLYESRNKNSVA | NASTRES | QQYHRLPLS, the assay gave -0.08 (6 of 6 replicates).
For TLEQLVFPMGKDWHSIA | NATTLLA | QQYYYLPLM, the assay gave 1.87 (6 of 6 replicates).
For KLSASVLYEKRNKNSVA | QASQRCS | QQYHRLPLS, the assay gave 0.35 (6 of 6 replicates).
For KSSQSLLYESRNKNSVA | WASTRES | QQYQRLPLS, the assay gave 1.77 (6 of 6 replicates).
For KLSQSFLYESRAKNSVA | GASQRES | QQYHRLPLS, the assay gave -0.47 (6 of 6 replicates).
For KLNDTFQQYERNNSSVA | DAIISEA | QQYARLPLI, the assay gave 1.60 (6 of 6 replicates).
For KLSMSVMMWSRNTNSVA | SANTREE | QQYHRLPLS, the assay gave 0.27 (6 of 6 replicates).
For KLEQGVLYESRNKNSVA | GASVRES | QQYHRLPLS, the assay gave -0.45 (6 of 6 replicates).
For NLNTYYYTGTSNWDNIA | HGSMVEA | QQYFRLPIQ, the assay gave 0.57 (6 of 6 replicates).
For HMSMLTLQGLRHRNSVA | QMTTRVN | QQYDRLPLA, the assay gave 1.61 (6 of 6 replicates).
For TISQSAQMELHNKNSVA | DLNVRGS | QQYDRLPLS, the assay gave 0.63 (6 of 6 replicates).
For KLPQSEPYEERCFNSVA | NASTRES | QQYHRLPLS, the assay gave 1.16 (6 of 6 replicates).
For KSEQSVLYSRRNKNSVA | DASTRES | QQYHRLPAS, the assay gave 2.84 (2 of 6 replicates).
For KLYQNVGTMTHNKQSIA | DMERRED | QQYHRLPLS, the assay gave 0.30 (6 of 6 replicates).

5 of these entries, quoted again:

| CDR-L1 | CDR-L2 | CDR-L3 | log10 Kd (nM), mean | detected |
|---|---|---|---|---|
| HLGLSTMLEEYVRNSVA | NNSTREE | QQYDRLPLS | 2.14 | 3 of 6 |
| KSSESALYESRNKNSVA | WASTRES | QQYHNLPLS | 1.92 | 1 of 6 |
| KSDTSKLYESRNKNSVA | WASTRES | QQYHRLPLS | 2.11 | 6 of 6 |
| KLSQSVLYEERNKNSVA | NASTRMS | QQYHRLPLS | -0.22 | 6 of 6 |
| KLPQSEPYEERCFNSVA | NASTRES | QQYHRLPLS | 1.16 | 6 of 6 |

In the paper, a design with two or fewer of six values counts as a poor binder.
As a blank, each scFv also met three strains without target: over all light chain designs, 4% of these pairings were detected, typically at 2.64 and seldom below 1.59.
Values of this round are not directly comparable with the first-round values of the same sequences.